Among the data in ChEMBL document CHEMBL3862033 (J Med Chem, 2016) are Ki and inhibition values, retold here.

Sequences of proteins named here, by UniProt entry; tags and fusion partners are left off. A change or cut given only in a name is not applied to a line headed by its entry.
UniProt P0DMS8, whole entry: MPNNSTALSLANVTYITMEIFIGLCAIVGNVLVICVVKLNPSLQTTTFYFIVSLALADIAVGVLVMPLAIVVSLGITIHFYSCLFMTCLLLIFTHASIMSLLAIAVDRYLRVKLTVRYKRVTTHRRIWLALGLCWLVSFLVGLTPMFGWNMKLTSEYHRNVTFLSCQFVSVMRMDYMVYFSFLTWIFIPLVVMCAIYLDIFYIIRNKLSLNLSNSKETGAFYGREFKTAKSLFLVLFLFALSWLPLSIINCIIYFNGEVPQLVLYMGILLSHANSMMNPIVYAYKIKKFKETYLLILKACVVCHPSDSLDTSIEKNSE
UniProt P30536, whole entry: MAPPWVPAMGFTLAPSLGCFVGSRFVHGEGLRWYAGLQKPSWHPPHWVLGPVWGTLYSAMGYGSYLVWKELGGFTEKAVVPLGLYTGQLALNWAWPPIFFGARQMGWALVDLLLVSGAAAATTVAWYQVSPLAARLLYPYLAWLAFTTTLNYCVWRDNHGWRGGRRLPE
UniProt P08908, whole entry: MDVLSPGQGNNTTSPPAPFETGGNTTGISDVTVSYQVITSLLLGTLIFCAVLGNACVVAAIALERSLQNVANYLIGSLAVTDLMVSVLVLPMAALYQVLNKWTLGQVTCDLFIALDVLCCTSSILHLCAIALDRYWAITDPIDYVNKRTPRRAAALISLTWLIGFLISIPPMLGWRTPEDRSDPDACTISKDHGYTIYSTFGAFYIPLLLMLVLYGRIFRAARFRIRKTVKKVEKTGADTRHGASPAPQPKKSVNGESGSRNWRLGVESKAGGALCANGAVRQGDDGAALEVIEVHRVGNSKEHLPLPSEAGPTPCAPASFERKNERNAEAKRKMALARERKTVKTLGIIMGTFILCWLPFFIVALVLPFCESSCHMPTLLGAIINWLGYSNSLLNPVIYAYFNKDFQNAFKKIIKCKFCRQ
UniProt P28222, whole entry: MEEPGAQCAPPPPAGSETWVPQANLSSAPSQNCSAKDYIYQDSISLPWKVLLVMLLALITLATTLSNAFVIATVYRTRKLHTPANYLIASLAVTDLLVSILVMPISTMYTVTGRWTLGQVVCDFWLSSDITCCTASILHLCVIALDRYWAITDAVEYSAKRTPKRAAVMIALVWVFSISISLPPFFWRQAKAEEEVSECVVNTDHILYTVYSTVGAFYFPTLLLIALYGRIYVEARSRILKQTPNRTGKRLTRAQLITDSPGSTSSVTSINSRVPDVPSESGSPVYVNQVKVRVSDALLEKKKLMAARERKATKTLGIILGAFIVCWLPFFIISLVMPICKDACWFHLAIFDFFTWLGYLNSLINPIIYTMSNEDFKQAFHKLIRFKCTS
UniProt P28221: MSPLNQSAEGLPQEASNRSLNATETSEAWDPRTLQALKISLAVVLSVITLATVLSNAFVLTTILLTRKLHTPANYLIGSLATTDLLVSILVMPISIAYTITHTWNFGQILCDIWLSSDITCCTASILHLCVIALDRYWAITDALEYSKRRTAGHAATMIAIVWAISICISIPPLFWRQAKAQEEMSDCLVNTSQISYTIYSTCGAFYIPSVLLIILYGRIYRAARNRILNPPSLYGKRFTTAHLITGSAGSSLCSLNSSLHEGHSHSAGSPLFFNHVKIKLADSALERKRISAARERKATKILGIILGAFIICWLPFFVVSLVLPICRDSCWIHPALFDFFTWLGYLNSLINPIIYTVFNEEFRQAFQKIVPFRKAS
UniProt P28566: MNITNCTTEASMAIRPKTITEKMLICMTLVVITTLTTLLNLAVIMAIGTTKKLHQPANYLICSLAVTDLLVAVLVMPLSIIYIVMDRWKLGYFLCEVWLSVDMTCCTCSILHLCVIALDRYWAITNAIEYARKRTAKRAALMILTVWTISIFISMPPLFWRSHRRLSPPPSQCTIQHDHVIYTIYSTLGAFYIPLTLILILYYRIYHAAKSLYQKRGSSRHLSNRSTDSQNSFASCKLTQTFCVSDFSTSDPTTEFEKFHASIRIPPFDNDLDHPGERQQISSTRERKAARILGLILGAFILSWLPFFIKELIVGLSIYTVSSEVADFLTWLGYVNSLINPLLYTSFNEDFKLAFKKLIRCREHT
UniProt Q13639: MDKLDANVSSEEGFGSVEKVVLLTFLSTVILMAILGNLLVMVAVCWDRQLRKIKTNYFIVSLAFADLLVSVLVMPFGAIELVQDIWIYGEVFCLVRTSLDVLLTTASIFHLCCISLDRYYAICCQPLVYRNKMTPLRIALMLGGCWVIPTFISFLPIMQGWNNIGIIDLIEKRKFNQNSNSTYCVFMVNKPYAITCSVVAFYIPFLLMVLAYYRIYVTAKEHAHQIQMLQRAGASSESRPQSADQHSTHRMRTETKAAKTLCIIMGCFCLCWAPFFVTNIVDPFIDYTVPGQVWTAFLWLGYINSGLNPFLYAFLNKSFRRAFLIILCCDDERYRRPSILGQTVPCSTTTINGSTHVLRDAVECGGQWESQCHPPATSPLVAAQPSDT
UniProt P50406, whole entry: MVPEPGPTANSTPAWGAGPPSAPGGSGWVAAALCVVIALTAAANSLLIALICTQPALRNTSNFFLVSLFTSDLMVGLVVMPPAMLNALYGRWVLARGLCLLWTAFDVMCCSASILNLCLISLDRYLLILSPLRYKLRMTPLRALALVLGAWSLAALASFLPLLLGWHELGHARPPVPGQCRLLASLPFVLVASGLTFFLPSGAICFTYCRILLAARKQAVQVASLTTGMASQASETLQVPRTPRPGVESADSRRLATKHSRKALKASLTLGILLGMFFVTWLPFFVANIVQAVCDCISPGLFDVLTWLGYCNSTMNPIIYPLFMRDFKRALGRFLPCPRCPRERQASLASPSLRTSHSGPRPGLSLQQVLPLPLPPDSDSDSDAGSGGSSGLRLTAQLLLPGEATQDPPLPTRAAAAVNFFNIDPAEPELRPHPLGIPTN
UniProt P34969, whole entry: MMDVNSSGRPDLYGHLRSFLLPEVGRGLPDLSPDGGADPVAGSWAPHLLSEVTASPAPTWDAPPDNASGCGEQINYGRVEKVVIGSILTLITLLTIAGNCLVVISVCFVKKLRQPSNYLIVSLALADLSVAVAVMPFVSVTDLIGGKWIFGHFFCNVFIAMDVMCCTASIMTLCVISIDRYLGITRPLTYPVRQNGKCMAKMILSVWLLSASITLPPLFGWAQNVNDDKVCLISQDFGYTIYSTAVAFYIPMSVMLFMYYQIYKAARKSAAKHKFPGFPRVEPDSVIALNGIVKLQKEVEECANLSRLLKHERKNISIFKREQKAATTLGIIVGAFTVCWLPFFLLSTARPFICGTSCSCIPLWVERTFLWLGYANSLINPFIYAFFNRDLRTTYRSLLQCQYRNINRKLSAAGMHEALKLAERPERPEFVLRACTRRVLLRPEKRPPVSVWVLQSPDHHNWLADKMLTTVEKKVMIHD
UniProt P46098, whole entry: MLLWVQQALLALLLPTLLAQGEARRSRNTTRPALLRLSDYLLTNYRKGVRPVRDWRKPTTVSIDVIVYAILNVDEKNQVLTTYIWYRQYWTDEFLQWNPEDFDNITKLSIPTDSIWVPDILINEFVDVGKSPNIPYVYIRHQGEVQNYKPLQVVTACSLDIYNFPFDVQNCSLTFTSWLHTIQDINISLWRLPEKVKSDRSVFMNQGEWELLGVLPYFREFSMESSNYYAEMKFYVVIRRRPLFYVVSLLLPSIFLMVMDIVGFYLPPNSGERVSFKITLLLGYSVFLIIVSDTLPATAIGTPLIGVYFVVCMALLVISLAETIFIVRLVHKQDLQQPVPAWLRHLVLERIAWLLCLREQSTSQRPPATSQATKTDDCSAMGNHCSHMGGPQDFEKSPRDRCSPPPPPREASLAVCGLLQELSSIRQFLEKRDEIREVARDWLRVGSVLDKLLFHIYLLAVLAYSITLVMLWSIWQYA
UniProt P47898, whole entry: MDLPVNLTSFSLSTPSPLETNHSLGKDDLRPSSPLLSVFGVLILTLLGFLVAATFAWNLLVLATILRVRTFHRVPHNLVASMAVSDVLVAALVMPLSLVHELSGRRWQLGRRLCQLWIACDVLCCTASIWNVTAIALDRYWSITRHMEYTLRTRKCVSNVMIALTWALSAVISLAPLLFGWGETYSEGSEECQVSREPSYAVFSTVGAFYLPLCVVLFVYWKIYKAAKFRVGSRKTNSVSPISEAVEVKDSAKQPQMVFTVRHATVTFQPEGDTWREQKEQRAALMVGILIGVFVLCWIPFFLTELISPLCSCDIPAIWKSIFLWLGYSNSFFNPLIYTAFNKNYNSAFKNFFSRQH
UniProt P28335: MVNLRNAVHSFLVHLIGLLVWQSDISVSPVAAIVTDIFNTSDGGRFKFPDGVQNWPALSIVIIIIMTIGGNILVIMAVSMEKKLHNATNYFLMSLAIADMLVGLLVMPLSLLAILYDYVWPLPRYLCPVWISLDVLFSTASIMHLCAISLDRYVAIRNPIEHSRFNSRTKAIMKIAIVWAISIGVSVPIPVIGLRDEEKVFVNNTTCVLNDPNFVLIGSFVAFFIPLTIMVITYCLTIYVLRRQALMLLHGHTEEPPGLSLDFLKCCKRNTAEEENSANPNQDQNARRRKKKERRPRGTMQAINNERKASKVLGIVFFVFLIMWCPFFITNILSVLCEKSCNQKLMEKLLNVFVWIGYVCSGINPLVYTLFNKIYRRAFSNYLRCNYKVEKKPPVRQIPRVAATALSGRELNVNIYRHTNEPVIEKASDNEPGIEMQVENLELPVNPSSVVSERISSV
UniProt P41595, whole entry: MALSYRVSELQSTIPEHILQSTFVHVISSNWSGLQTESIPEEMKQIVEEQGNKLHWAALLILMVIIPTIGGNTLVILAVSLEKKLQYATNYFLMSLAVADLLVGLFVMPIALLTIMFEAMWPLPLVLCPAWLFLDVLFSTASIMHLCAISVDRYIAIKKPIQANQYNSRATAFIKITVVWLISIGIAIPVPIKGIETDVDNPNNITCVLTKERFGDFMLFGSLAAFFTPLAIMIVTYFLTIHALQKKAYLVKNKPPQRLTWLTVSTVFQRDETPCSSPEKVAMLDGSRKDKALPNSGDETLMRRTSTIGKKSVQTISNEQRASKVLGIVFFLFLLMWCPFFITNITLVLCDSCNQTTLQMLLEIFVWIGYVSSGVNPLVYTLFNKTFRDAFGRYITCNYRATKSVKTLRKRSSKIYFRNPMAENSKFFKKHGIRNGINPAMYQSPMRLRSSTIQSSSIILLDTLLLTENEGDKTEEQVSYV

In general, Ki refers to the dissociation constant of the complex between target and ligand, obtained from inhibition or displacement. The inhibition is the relative decrease from the control value, in per cent.

SMILES strings stand for the structures. Bounds are passed on as bounds.

One experiment deals with Adenosine receptor A3 (Homo sapiens, UniProt P0DMS8). Nature of the experiment: Displacement of [125l]N 6-(4-amino-3-iodobenzyl)adenosine-5'-N-methyluronamide from recombinant human A3AR expressed in CHO cell membranes after 60 mins by gamma counting method.
The next experiment concerns the target Translocator protein (Homo sapiens, UniProt P30536). Description: Inhibition of TSPO (unknown origin).
The target in experiment [1] is 5-hydroxytryptamine receptor 1A (Homo sapiens) (UniProt P08908). Description: Displacement of [3H]WAY100635 from human 5-HT1AR expressed in CHO cell membranes at 10 uM incubated for 90 mins under dark condition by microbeta scintillation counting method relative to control. A general note: Displacement assays read how much labelled ligand stays bound in the presence of the test substance.

Experiment [2] addresses 5-hydroxytryptamine receptor 1B (Homo sapiens) (UniProt P28222). Nature of the experiment: Displacement of [3H]5-CT from human 5-HT1BR expressed in HEK cell membranes at 10 uM incubated for 90 mins under dark condition by microbeta scintillation counting method relative to control. The conditions noted are these: HEK293.
Experiment [3] concerns the target 5-hydroxytryptamine receptor 1D (Homo sapiens) (UniProt P28221). Nature of the experiment: Displacement of [3H]5-CT from human 5-HT1D receptor expressed in HEK-T cell membranes at 10 uM incubated for 90 mins under dark condition by microbeta scintillation counting method relative to control.
The target in experiment [4] is 5-hydroxytryptamine receptor 1E (Homo sapiens) (UniProt P28566). Description: Displacement of [3H]5-HT from human 5-HT1E receptor expressed in HEK cell membranes at 10 uM incubated for 90 mins under dark condition by microbeta scintillation counting method relative to control. Conditions: HEK293.
For experiment [5], the target named is 5-hydroxytryptamine receptor 4 (Homo sapiens) (UniProt Q13639). Nature of the experiment: Displacement of [3H]GR113808 from human 5-HT4 receptor at 10 uM incubated for 90 mins under dark condition by microbeta scintillation counting method relative to control.
The target in experiment [6] is 5-hydroxytryptamine receptor 6 (Homo sapiens) (UniProt P50406). Nature of the experiment: Displacement of [3H]LSD from human 5-HT6 receptor expressed in HEK cell membranes at 10 uM incubated for 90 mins under dark condition by microbeta scintillation counting method relative to control. The conditions noted are these: HEK293.
Experiment [7] has as its target 5-hydroxytryptamine receptor 7 (Homo sapiens) (UniProt P34969). Description: Displacement of [3H]LSD from human 5-HT7A receptor expressed in HEK cell membranes at 10 uM incubated for 90 mins under dark condition by microbeta scintillation counting method relative to control. Conditions: HEK293.
Experiment [8] deals with 5-hydroxytryptamine receptor 3A (Homo sapiens, UniProt P46098). Description: Displacement of [3H]GR65630 from human 5-HT3 receptor expressed in HEK-T cell membranes at 10 uM incubated for 90 mins under dark condition by microbeta scintillation counting method relative to control.
Experiment [9] has as its target 5-hydroxytryptamine receptor 5A (Homo sapiens) (UniProt P47898). Nature of the experiment: Displacement of [3H]LSD from human 5-HT5A receptor expressed in Flp-In-CHO cell membranes incubated for 90 mins under dark condition by microbeta scintillation counting method relative to control. Set-up: concentration or dose not given beside the values.
In experiment [10] the target is 5-hydroxytryptamine receptor 2C (Homo sapiens, UniProt P28335). Description: Displacement of [3H]mesulergine from human 5-HT2CR expressed in Flp-In HEK cell membranes at 10 uM incubated for 90 mins under dark condition by microbeta scintillation counting method relative to control. The conditions noted are these: HEK293.
Another experiment addresses Adenosine receptor A2a (Homo sapiens, UniProt P29274). Nature of the experiment: Displacement of [3 H]2-[p-(2-carboxyethyl)phenyl-ethylamino]-5'-N-ethylcarboxamidoadenosine from recombinant human adenosine receptor A2A expressed in HEK293 cell membranes at 10 uM after 60 mins by liquid scintillation counting method relative to control.
In experiment [11] the target is 5-hydroxytryptamine receptor 2B (Homo sapiens, UniProt P41595). Conditions: HEK293, at 10 µM.

On to `O[C@@H]1[C@H](O)[C@@H]2C[C@@H]2[C@H]1n1cnc2c(NCc3cccc(Cl)c3)nc(Cl)nc21`, for which the inhibitory constant (Ki) at Adenosine receptor A3 was found to be 4.9 µM.
At Translocator protein, `CCOC(=O)[C@@]12C[C@@H]1[C@@H](n1cnc3c(NC(C4CC4)C4CC4)nc(Cl)nc31)[C@H](O)[C@@H]2O` came in with a Ki of 2.1 µM.
Consider `O[C@@H]1[C@H](O)[C@@H]2C[C@@H]2[C@H]1n1cnc2c(NC(C3CC3)C3CC3)nc(Cl)nc21`, for which the inhibition in experiment [1], in experiment [2], in [3], in experiment [4], in experiment [5] and in experiment [6] was less than 50% throughout. The inhibition in [7] is less than 50%; in [8] it was less than 50%; in experiment [9], less than 50%; in [10], greater than 50%; at Adenosine receptor A2a, greater than 50%; in experiment [11] it was greater than 50%.
